# Test results: US20260382635A1, “NITROSYL-HEME FORMULATIONS FOR THE TREATMENT OF CARDIOVASCULAR CONDITIONS, HEMOLYSIS, AND THE STABILIZATION OF CELL-FREE HEME MOLECULES” (published 2026)
# Legend:
# [1] = NO-ferroheme formation kinetics in red blood cell membrane ghosts (UV-Vis); conditions: 250 μM thiol or sulfide; 25 μM heme, 100 μM NO, red cell ghosts; scanning every minute
# Procedure: Red cells were separated from the whole blood by sedimentation via centrifugation at 1000 g for 10 minutes. These packed red cells were then hemolyzed using 5 mM phosphate buffer, pH 8 (4.674 mM Na2HPO4+0.326 mM NaH2PO4) in the volume ratio of 1:40 for an hour. The mixture was spun at 35,000 g for 30 minutes at 20 °C and washed with the buffer repeatedly until the white ghosts were produced. The absence of hemoglobin was confirmed by taking the absorption of the ghosts in the range of 300-700 nm. Differential interface contrast microscopy images of the ghost membranes were taken via a Zeiss Axio Observer D1 Microscope. Images were collected and processed using ImageJ (1.44p).
# Heme is hydrophobic and can be solubilized in organic solvents like methanol. […] The use of RBC membrane ghosts enabled characterization of the NO-ferroheme product by low temperature electron paramagnetic resonance (EPR) spectroscopy. Both reactions (in the presence and absence GSH) give rise to a rhombic EPR spectrum characteristic of a five-coordinate NO-ferroheme species with g-values at 2.081, 2.054, and 2.012 for gmax, gmid, and gmin, respectively, and a three-line hyperfine splitting centered on gmin (^NOA=47 MHz, FIG. 2D).^45,46
# 25 μM heme and 100 μM NO were reacted in the red cell ghost system under anoxic conditions at room temperature in the absence of any thiol species. […]
# rodents = conditions: concentrations less than 300 μM; cited from earlier work
# mice = assay: Changes in murine mean arterial pressure (MAP); conditions: 7.5 nM-7.5 μM; except highest dose of dissolved NO (7.5 μM)
# Procedure: A total of 70 male C57BL/6J mice (the Jackson Laboratory), aged between 12 to 14 weeks, were anesthetized by isoflurane (2.5%) for all experiments. Mice were in rooms maintaining 12/12 h light/dark cycles at 20-26 °C and 30-70% relative humidity. 10 of these total mice were used to establish the parameters of the model. Body temperature was maintained at 37 °C by a heating pad connected to heat pump (Androit). Catheters were implanted for carotid artery and jugular vein. Arterial blood pressure was continuously recorded through a blood pressure transducer (MLT699, ADInstrument) connected to an 8-channel Powerlab (ADInstrument). A tracheal tube was introduced and connected to a rodent ventilator (Model 849, MidiVent). Upon completion, in some animals, the fraction of inspiratory O2 was decreased from 21% to 10% to induce hypoxia. 75 μL of L-NAME was administered intravenously in a bolus at a dose of 10 mg/kg bodyweight. Ten minutes after L-NAME injection, animals were injected with 50 μL of NO-ferroheme, normal saline (NS), NO control, or freshly prepared GSNO^77 control for 4 times at 10-minute intervals. An NO-ferroheme in albumin stock was prepared via a concentrated version of the direct method as described above: 300 μM ferric heme was mixed anaerobically on a Schlenk line with 3 mM GSH and 600 μM NO in 500 μM albumin using air-tight Hamilton syringes. NO controls were generated similarly and comprised 300 μM dissolved NO with 3 mM GSH in anaerobic albumin solution. Likewise, GSNO stocks comprised 300 μM GSNO with 3 mM GSH in anaerobic albumin solution. Each of these stocks (NO-ferroheme, NO control, or GSNO control) were handled identically and diluted further in air with 500 μM albumin solution before injection by 1000-, 100-, and 10-fold. Mean arterial pressure (MAP) values were obtained by processed the recorded arterial pressure data with LabChart 7.3.8 (ADInstruments). To quantify changes ΔMAPmax was determined, defined as the average MAP before an injection (average of 3 to 5 time points) subtracted from the maximum change within 3 minutes after injection (average of 3-5 time points) for each species at a given concentration.
# Using male C57BL/6J mice, catheters were inserted into the right carotid artery and jugular vein for monitoring MAP and for dose injections, respectively. Fresh NO-ferroheme stock solutions were generated in an anaerobic environment by mixing 300 μM hemin, 3 mM glutathione, 600 μM NO, and 500 μM bovine serum albumin in PBS. To establish that vasodilation was independent of endogenous eNOS-derived NO, mice were first treated with the NOS inhibitor L-NG-nitroarginine methyl ester (L-NAME). Four doses of NO-ferroheme were administered at estimated blood concentrations of 7.5 nM, 75 nM, 0.75 μM, and 7.5 μM. Doses were injected intravenously every ten minutes, long enough for the blood pressure to stabilize.
# Injections of NO-ferroheme solution in hypoxic animals were characterized by a rapid, transient relaxation, as monitored by changes in MAP. The MAP almost completely returned to the L-NAME induced baseline after ten minutes when compared to normal saline controls (FIG. 5A). […] These changes were also significant versus normal saline at 75 nM under normoxic conditions (p=0.0002), 0.75 μM and 7.5 μM (p<0.0001, FIG. 5D, open squares vs circles).
# This synthesis can involve multiple potential vasodilators including NO itself, GSNO, and NO-ferroheme. Therefore, it was desirable to define the dominant vasodilating species. The vasodilation potency of NO and GSNO was compared. Fresh stocks of NO were made (300 μM NO, 3 mM glutathione, and 500 μM albumin) and mice were injected in 10-minute intervals at the same dosing as the NO-ferroheme albumin injections (7.5 nM, 75 nM, 0.75 μM, and 7.5 μM dissolved NO) under 10% hypoxia and normoxia (FIGS. 5A and 5B, hashed traces). […]
# [2] = Chemiluminescent quantification of NO from NO-ferroheme and GSNO in MeOH:PBS buffer
# Procedure: A Zysense Nitric Oxide Analyzer 280i or an ECO PHYSICS nCLD 88 liquid NO system was used to detect NO congeners, with data from the former recorded using SIEVERS Windows 95/98/NT (v3.21 PNN) and the latter using eDAQ Chart (v5.5.27). Measurements of nitrosothiols was made using Cu/Cys assay (2C assay) or tri-iodide assay.^40 NO-ferroheme was measured by injecting an amount each sample into the NOA purge vessel containing 50 mM potassium [COMPOUND LEFT OUT] in PBS at 25 or 37 °C. See following Examples for specific amounts. Samples were protected from light by aluminum foil.
# The identity and stoichiometry of the reaction products support a mechanism involving thiol-catalyzed reductive nitrosylation of ferric heme to form NO-ferroheme and a thiyl radical, which subsequently reacts with excess NO to form secondary S-nitrosoglutathione (GSNO). These species, NO-ferroheme and GSNO, were identified and quantified by reductive chemiluminescence with NO detection in the chemiluminescent nitric oxide analyzer (FIG. 1G, Untreated bars). […]
# sGC = assay: Cyclic GMP ELISA in platelet-rich plasma; conditions: 1 μM ODQ, with and without tadalafil
# Procedure: 96-well Cyclic GMP ELISA kits were purchased from Cayman Chemical. Fresh platelet-rich plasma (PRP) was collected from different healthy donors by centrifugation of the blood samples at 300 g for 5 minutes. PRP was diluted 1:7 using the mixture of NO-ferroheme at concentrations described above, 1 μM ODQ (Cayman Chemical), 10 nM PDE inhibitor (Tadalafil, Cayman Chemical), or 2 μM NO. The final 500 μL volumes were adjusted with argon-degassed buffer. Samples with ODQ were incubated with platelets for 10 minutes at room temperature prior to any further additions. All samples were incubated in a 37 °C water bath for 15 minutes and then fixed using a 1:4 dilution of ice-cold 99.5% ethanol. The supernatants were collected after centrifuging at 1,500 g for 10 minutes followed by hours of incubation for the evaporation of ethanol. ELISA buffer (500 μL) was then added to the ethanol-free samples and used in the ELISA 96-well plate for triplicate readings. The non-acetylated approach was performed following the manufacturer's instructions. The plate was analyzed at 412 nm wavelength at room temperature by a Molecular Devices SpectraMax 340 PC microplate reader. SoftMax Pro (v4.8) was used to collect and analyze ELISA data. […]
structure (smiles),measurement,setting,value
N[C@@H](CS)C(=O)NCC(=O)O,NO-ferroheme reaction completion,[1],completes the NO-ferroheme reaction within the first scan
N[C@@H](CCC(=O)N[C@@H](CSN=O)C(=O)NCC(=O)O)C(=O)O,effect on MAP,rodents,does not significantly affect MAP
same,"change in MAP vs normal saline, words",mice,no significant changes in MAP
CC1(C)CCC=[N+]1[O-],effect of DMPO on formation of GSNO,[2],completely abrogated the formation of GSNO
O=c1onc2cnc3ccccc3n12,effect of ODQ on NO-ferroheme cGMP response,sGC,ablated NO-ferroheme response
